Protein sequences, listed by entry. Tags and fused reporters are not part of them.
UniProt P32300, whole entry, looked up: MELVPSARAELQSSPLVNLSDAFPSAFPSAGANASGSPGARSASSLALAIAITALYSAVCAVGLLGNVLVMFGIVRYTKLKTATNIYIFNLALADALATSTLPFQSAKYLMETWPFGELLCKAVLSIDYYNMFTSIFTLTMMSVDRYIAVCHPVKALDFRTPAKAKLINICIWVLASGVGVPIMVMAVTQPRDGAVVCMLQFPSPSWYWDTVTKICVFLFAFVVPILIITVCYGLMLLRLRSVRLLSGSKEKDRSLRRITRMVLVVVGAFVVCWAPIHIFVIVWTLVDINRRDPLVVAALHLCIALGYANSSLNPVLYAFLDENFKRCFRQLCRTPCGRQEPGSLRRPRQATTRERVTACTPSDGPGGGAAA

According to ChEMBL document CHEMBL3352005, “Synthesis of a novel universal opioid receptor agonist with the 1,3,5-trioxazatriquinane skeleton and its pharmacologies” (Bioorg Med Chem Lett, 2014):

Target: Delta-type opioid receptor (Mus musculus, UniProt P32300)
Assay: Displacement of [3H]DPDPE from mouse whole brain DOR

With `CN(C(=O)Cc1ccccc1)[C@H]1CC[C@@]2(CCCO2)C[C@@H]1N1CCCC1` the Ki was > 1000 nM.
